Test results from US20250032651A1, “[177LU] LUTETIUM-PSMA I&T COMPOSITION AND DOSIMETRY, KIT, METHOD OF MAKING, AND METHOD OF USING THEREOF” (Curium US LLC, priority 2022, published 2025).

Assay: Radiochemical purity of ^177Lu-PSMA I&T by HPLC in different formulation compositions, hours post EOS (Example 3)
Assay type: physicochemical
Experimental: The shelf life of ^177Lu-PSMA I&T is restricted by high rate of radiolysis during preparation and storage resulting in decomposition of ^177Lu-PSMA I&T and formation of radiochemical impurities. This eventually results in radiochemical purity of ^177Lu-PSMA I&T solution to fall below acceptance limit of 95.0%. • Formation of a particular radiochemical impurity of ^177Lu-PSMA I&T have been observed having retention time of about 5.2 minutes by HPLC with Phenomenex Luna C18 column (3 μm, 150 mm×4.6 mm) using 0.1% trifluoroacetic acid in water (Mobile phase A) and 0.1% trifluoroacetic acid in water:acetonitrile (10:90% v/v) (Mobile phase B) and isocratic method of 23% Mobile phase B at temperature of 40° C. The impurity referred herein having retention time of about 5.2 minutes is exemplified in the chromatograms in FIGS. 6A-11B. • In experiments conducted previously, lowering formulation radioactivity concentration was sufficient to reduce the formation of the impurity eluting at about 5.2 minutes and maintaining radiochemical stability of [^177Lu]Lu-PSMA I&T solutions above 95.0% for 72 hours. • In this example, six experiments were conducted where [^177Lu]Lu-PSMA I&T was prepared in different formulation compositions with varying ascorbic acid concentration, pH and radioactivity concentration. Product formulation details are described in Table 6.
• High radioactivity concentration (high RAC) in sample solutions were 1278 MBq/ml, 1281 MBq/ml and 1311 MBq/ml measured at the end of production. Low radioactivity concentration (low RAC) in sample solutions were 579 MBq/ml, 589 MBq/ml and 626 MBq/ml measured at the end of production. Radiochemical purity of each solution was followed by HPLC up to 71-93 hours post-radiolabeling.

**Q.** For `O=C([O-])CC[C@H](NC(=O)N[C@@H](CCCCNC(=O)CCCCCCC(=O)NCCCC[C@@H](NC(=O)[C@@H](Cc1ccccc1)NC(=O)[C@@H](Cc1ccc(O)c(I)c1)NC(=O)CC[C@H](C(=O)[O-])N1CCN(CC(=O)[O-])CCN(CC(=O)[O-])CCN(CC(=O)[O-])CC1)C(=O)[O-])C(=O)[O-])C(=O)[O-].[177Lu+3].[H+].[H+].[H+].[H+].[H+]` [^177Lu-PSMA I&T, (3S,7S,26R,29R,32R,37R)-29-benzyl-32-(4-hydroxy-3-iodobenzyl)-5,13,20,28,31,34-hexaoxo-37-(4,7,10-tris(carboxymethyl)-1,4,7,10-tetraazacyclododecan-1-yl)-4,6,12,21,27,30,33-heptaazaheptatriacontane-1,3,7,26,37-pentacarboxylic acid; lutetium-177 (III)], which radiochemical purity (high radioactivity concentration, pH 4.5, 42.5 mg/ml ascorbic acid, 0 hours post EOS) is on record?
**A.** The radiochemical purity was 99.4%.

**Q.** And the radiochemical purity (low radioactivity concentration 579 MBq/ml, pH 4.5, 21 mg/ml ascorbic acid, 0 hours post EOS)?
**A.** The radiochemical purity was 99.4%.

**Q.** What about the radiochemical purity (low radioactivity concentration 579 MBq/ml, pH 4.5, 21 mg/ml ascorbic acid, 19 hours post EOS) of the same compound?
**A.** The radiochemical purity was 98.3%.

**Q.** What about the radiochemical purity (low radioactivity concentration 579 MBq/ml, pH 4.5, 21 mg/ml ascorbic acid, 46 hours post EOS) of the same compound?
**A.** Its radiochemical purity is 97.5%.

**Q.** What about the radiochemical purity (low radioactivity concentration 579 MBq/ml, pH 4.5, 21 mg/ml ascorbic acid, 71 hours post EOS) of the same compound?
**A.** Its radiochemical purity is 96.8%.

**Q.** What about the radiochemical purity (low radioactivity concentration 588.5 MBq/ml, pH 4.5, 31 mg/ml ascorbic acid, 0 hours post EOS) of the same compound?
**A.** Its radiochemical purity is 99.1%.

**Q.** What about the radiochemical purity (low radioactivity concentration 626 MBq/ml, pH 5.0, 31 mg/ml ascorbic acid, 71 hours post EOS) of the same compound?
**A.** The radiochemical purity was 96.5%.
